Here are results for 1 substance from patent US8881823B2, “Environmentally friendly low temperature breaker systems and related methods” (Halliburton Energy Services, Inc., priority 2011, dated 2014).

The nature of data set [1]: Miscibility and pH of breaker systems in fresh water. Format: physicochemical. Conditions: breaker system in fresh water, 150° F. for 16 hours.
Data set [2] is described as follows: Calcite dissolving capacity of breaker systems. The data set is classed as physicochemical. Particulars: 2.5 g BARACARB 5 in 50 mL test fluid, one hour.

Turning to EDTA sodium salt, in data set [1], the pH is listed as greater than 12. In addition, in data set [2], the “% Carbonate Complexed or Dissolved” value is 35.2% and the “Final Weight of BARACARB 5, g” value stood at 1.62 g.
